{"source": "patent US12649776B2", "about": "“Scaffold proteins and therapeutic nanoconjugates based on nidogen” (UNIVERSITAT AUTÒNOMA DE BARCELONA, priority 2019, dated 2026)", "origin": "cited, not measured here", "conditions": "literature value; cited from earlier work"}
{"substance": "HSA: human serum albumin, literature comparator (Picó)", "values": [{"measurement": "Tm", "result": 63, "unit": "°C"}]}
